Experimental data: PubChem BioAssay AID1645870 (National Center for Advancing Translational Sciences (NCATS), 2021)
The entries are a selection whose mix differs from that of the whole data set. Some results for these compounds are left out of this collection, so the calls shown say nothing about other tests. Inconclusive results are not listed. The source made the active and inactive calls. The call rests on the fitted dose curve; in most records, active means well fitted inhibition curve with a large enough effect; inconclusive means small, poorly fitted or top-dose-only effect; inactive means flat fitted curve, though single readings scatter.

By UniProt entry, the sequences of proteins in these tests, tags left out.
UniProt Q9BV86, whole entry: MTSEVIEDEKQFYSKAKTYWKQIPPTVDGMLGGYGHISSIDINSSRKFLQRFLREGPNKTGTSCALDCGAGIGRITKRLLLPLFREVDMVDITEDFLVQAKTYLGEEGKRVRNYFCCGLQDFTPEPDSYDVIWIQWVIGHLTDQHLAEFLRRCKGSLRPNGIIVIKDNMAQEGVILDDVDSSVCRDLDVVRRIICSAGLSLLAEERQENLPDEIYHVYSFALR

Target: N-terminal Xaa-Pro-Lys N-methyltransferase 1 (Homo sapiens) (UniProt Q9BV86)
Assay: Primary qHTS for Inhibitors of N-terminal methyltransferase 1 (NTMT1): MTaseGlo Assay;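 further: plate controls were DMSO vehicle for no effect and no enzyme for full effect; nearly all actives have a fitted effect of over 65% in size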
Conditions: NTMT1 MTase-Glo SAH luminescence, purified enzyme; at 114 µM (top of the series)
Excerpt: Assay Submitter (PI): Rong Huang Ph.D.
Purdue University, West Lafayette, IN 47907
The N-terminal methytransferase 1 is the first methyltransferase that methylates protein alpha-N-amines and plays an important role in regulating cell mitosis, chromatin interactions and DNA repair. It is observed to be over-expressed in various cancer patient tissues like malignant melanoma and colorectal cancer tissues. Knockdown of NTMT1 in cancer cells causes cell mitotic defects and enhances sensitivity to DNA damaging chemotherapeutics. […] These critical cellular processes in which NTMT1 is implicated, coupled with emerging links to cellular dysfunction, strengthen the inference that NTMT1 is a compelling novel anticancer target. Progress have been made in understanding the molecular properties of NTMT1 and the biological consequences of protein alpha-N-terminal methylation, but there are no specific small molecule probes available for NTMT1 to fully characterize its MTase activity. To address this unmet need, a panel of assay is created and established to enable quantitative high-throughput screening (qHTS) for novel, potent, and selective small molecule NTMT1 inhibitors. Two orthogonal qHTS that use different reagents (ThioGlo vs. MTaseGlo) are developed for primary robotic screening against the NCATS chemical library of more than 400,000 small molecules. Identified inhibitors are reacquired, validated, and further characterized.
MTaseGlo Assay is a luminescence screen that measure the activity of methyltransferases based on the reaction product S-adenosyl homocysteine (SAH). The substrate SAM is converted to SAH upon enzyme activation. MTase-Glo reagent and detection solution convert SAH to ATP and measure the light from the luciferase reaction.
Materials: NTMT1 enzyme, substrate SPKRIA, control peptide RCC1-6 is provided by the Huang laboratory.
SEQUENCE No. (e.g., 1, 2, 3, etc.); […] (e.g., Cells, Incubation, Reagent, etc.); VALUE; DESCRIPTION
1; Enzyme; 3 uL; Dispense enzyme mixture (final concentrations of 125 nM NTMT1 and 100 uM SAM) into Greiner 1536-well white / solid bottom assay plate (Greiner Bio One, Monroe, NC).
2; Compounds; 23 nL; Compounds and controls were transferred via a Kalypsys Pin Tool (Wako USA) equipped with a 1536-slotted pin array (Wako Automation, Richmond, VA)
3; Incubation; 15 min; Incubate at room temperature
4; Substrate; 1 uL; Dispense 1 uL of substrate at final concentration of 1 uM. Buffer solution was dispensed in control wells. The assay plate was covered with metal lids.
5; Incubation; 30 min; Incubate at room temperature, protected from lights.
6; Reagent; 1 uL; Dispensed 5x MTase-Glo detection reagent (R) into the assay plate. The plate was covered with metal lids.
7; Incubation; 30 min; Incubate the assay plates at room temperature in the dark to allow for SAH to be converted to ADP.
8; Reagent; 5 uL; Dispense 5 uL of 1x MTase-Glo Detection Solution (R) to allow for ADP to be converted to ATP which was then detected with a luciferase reaction.
9; Centrifuge; 15 sec; Centrifuge the assay plate for 15 seconds at 1000 RPM.
10; Incubation; 30 min; Assay plates were incubation at room temperature in the dark.
11; Detection; Luminescence; Plates were read on ViewLux detector (PerkinElmer). Data were normalized to no-enzyme (0% activity) and no-inhibitor (DMSO; 100%) controls, and the resulting percent inhibition data were fitted to a 4-parameter Hill equation using GraphPad Prism.

SMILES	activity change, negative = inhibition
O=C(C1CCC1)N1CCN(C/C=C/c2ccccc2)CC1	inactive: 5.11%
CN(C)C1(CNC(=O)c2cccc(Cl)c2)CCCCC1	inactive: -3.92%
CN(C)C1(CNC(=O)c2ccccc2F)CCCCC1	inactive: 8.22%
CN(C)C1(CNC(=O)c2ccccc2[N+](=O)[O-])CCCCC1	inactive: 1.46%
CCCCOc1ccccc1C(=O)NCC1(N(C)C)CCCCC1	inactive: 8.22%
CCOc1cccc(C(=O)NCC2(N(C)C)CCCCC2)c1	inactive: 1.57%
COc1ccc(C(=O)NCC2(N(C)C)CCCCC2)cc1Cl	inactive: 5.85%
COc1cccc(C(=O)NCC2(N3CCOCC3)CCCCC2)c1	inactive: 4.5%
CC(C)COc1ccc(C(=O)NCC2(N(C)C)CCCCC2)cc1	inactive: -1.58%
Cc1cccc(C(=O)NCC2(N(C)C)CCCCC2)c1	inactive: 3.77%
COc1cc(C(=O)NCC2(N(C)C)CCCCC2)cc(OC)c1OC	inactive: 5.63%
CC(C)Oc1ccc(C(=O)NCC2(N(C)C)CCCCC2)cc1	inactive: -3.38%
